Data: PubChem BioAssay AID1745845 (National Center for Advancing Translational Sciences (NCATS), 2022)
The list shows a part of the results, in another mix than the full data. Results filed as inconclusive are left out. The source made the active and inactive calls. Calls follow the shape of the dose curve; as a rule, active = well fitted inhibition curve with a large enough effect; inconclusive = small, poorly fitted or top-dose-only effect; inactive = no such curve, though single readings can be large or run the other way.

experiment: Primary qHTS for Inhibitors of ATXN expression; settings: HEK-293 ATXN2-luciferase reporter, luminescence, 24 h; series mostly up to 57 µM; activity change, negative = inhibition: at the top concentration; also: nearly all actives have a fitted effect of over 55% in size
% is scaled to controls: 0 for no effect and ±100 for the full control effect; potency is read from the fitted curve at half-maximal effect.

| SMILES | activity change, negative = inhibition | Potency |
| --- | --- | --- |
| CC(C)CC(=O)NC(Sc1ccc(Cl)cc1)C(Cl)(Cl)Cl (centres undefined) | inactive: 2.81% | – |
| Nc1cc(N)c2nonc2c1[N+](=O)[O-] | inactive: -15.7% | – |
| O=C(NC(Sc1ccncn1)C(Cl)(Cl)Cl)c1ccccc1 (centres undefined) | inactive: 0.29% | – |
| Oc1ccccc1CNc1ccccn1 | inactive: 12.7% | – |
| O=[N+]([O-])C1C(O)C(O)C([N+](=O)[O-])C(O)C1O (centres undefined) | inactive: 13.3% | – |
| Cc1ccc(N/C(=N/P(=O)(N2CCOCC2)N2CCOCC2)N2CCOCC2)cc1 | inactive: -26.6% | – |
| CN(C(=O)Cc1ccc(Cl)c(Cl)c1)[C@H]1CCCC[C@H]1N1CCCC1 | inactive: -16.4% | – |
| Cc1ccc(OP(=O)(Nc2nccs2)Oc2ccc(C)cc2)cc1 | inactive: 5.19% | – |
| COc1ccccc1OP(=O)(Nc1ccc(C)cn1)Oc1ccccc1OC | inactive: 0.263% | – |
| CCNC(C)Cc1ccc2c(c1)OCO2 (centres undefined) | inactive: 10.1% [at 116 µM] | – |
| Clc1ccc(Cl)c(NC2=NCC(CBr)S2)c1 (centres undefined) | inactive: -5.49% [at 11.3 µM] | – |
| CN1CCCC(OC(=O)C(c2ccccc2)c2ccccc2)C1 (centres undefined) | inactive: -16.2% | – |
| Nc1ccc([As](=O)(O)c2ccc(N)cc2)cc1 | inactive: 7.9% | – |
| CCN(/C(=N/P(=O)(N1CCOCC1)N1CCOCC1)N1CCOCC1)c1ccc(OC)cc1 | inactive: -12.4% [at 11.3 µM] | – |
| CN(C)C(=O)OCCc1n(C)cc[n+]1C | inactive: 4.32% | – |
| CC(C)=N/N=C(\N)N[N+](=O)[O-] | inactive: -6.49% | – |
| CC1CCN(C(=O)Oc2c(Cl)cc(Cl)c3cccnc23)CC1 | inactive: 2.47% | – |
| COc1ccc(C2=NCC(CBr)S2)cc1 (centres undefined) | inactive: -2.35% | – |
| O=[N+]([O-])c1cccc2n[nH]nc12 | inactive: -3.17% | – |
| CC(=O)N1C2C3N(C(C)=O)C1C1N(C(C)=O)C(C(N1C(C)=O)N3C(C)=O)N2C(C)=O | inactive: -0.133% | – |
| O=[N+]([O-])c1cc([N+](=O)[O-])c(CCNc2ccccc2)c([N+](=O)[O-])c1 | inactive: -26.4% | – |
| Cc1ccc(NP(=O)(Oc2ccccc2)Oc2ccccc2)nc1 | inactive: 5.54% | – |

| SMILES | activity change, negative = inhibition | Potency |
| --- | --- | --- |
| COC(=O)C1(C)COP(=O)(Nc2ccccc2)OC1 (centres undefined) | inactive: 6.91% | – |
| O=P1(N(CCCl)CCCl)OCCCS1 (centres undefined) | inactive: -1.08% | – |
| O=[N+]([O-])c1ncn(CCn2cnc([N+](=O)[O-])n2)n1 | inactive: 2.46% | – |
| CC(=O)NC(SC(=S)N(C)C)C(Cl)(Cl)Cl (centres undefined) | inactive: -1.03% | – |
| O=[As](O)(c1ccccc1)c1ccc(O)cc1 | inactive: 9.85% | – |
| Nc1ccc([As](=O)(O)c2ccc([N+](=O)[O-])cc2)cc1 | inactive: 1.4% | – |
| C(Cc1nn[nH]n1)Cc1nn[nH]n1 | inactive: 8% | – |
| O=C(OC1CN2CCC1CC2)c1cccc(Cl)c1 (centres undefined) | inactive: -1.62% | – |
| Nc1ccc(CCCCOc2ccccc2)cc1 | inactive: 19.5% | – |
| COc1ccc(N)c([N+](=O)[O-])c1[N+](=O)[O-] | inactive: 0% | – |
| O=P(Nc1ccccn1)(c1ccc(Br)cc1)c1ccc(Br)cc1 | inactive: -25.5% | – |
| CN(C)C1(CNC(=O)c2ccc(Cl)c(S(N)(=O)=O)c2)CCCCC1 | inactive: 25.8% | – |
| C[C@H]1OP(=O)(Oc2ccccc2)[C@H](O)[C@H](O)[C@H]1N=[N+]=[N-] (some centres undefined) | inactive: -1.61% | – |
| O=P(Nc1nc2ccccc2s1)(c1ccccc1)c1ccccc1 | inactive: 20.5% | – |
| CN(C(=O)Cc1ccccc1)[C@H]1CC[C@@]2(CCCO2)C[C@@H]1N1CCCC1 | inactive: 3.95% | – |
| Cc1cc([N+](=O)[O-])cc([N+](=O)[O-])c1O | inactive: -18.6% [at 116 µM] | – |
| CC(C)C(=O)NC(Sc1ccccc1)C(Cl)(Cl)Cl (centres undefined) | inactive: -12% | – |
| O=P(Nc1nccs1)(c1ccccc1)c1ccccc1 | inactive: 8.68% | – |
| c1nnnn1CCn1cnnn1 | inactive: -4.58% | – |
| COC(=O)C1(C)COP(=O)(NCc2ccccc2)OC1 (centres undefined) | inactive: -5.05% | – |
| CC(=O)c1ccc(N2CC2c2ccncc2)cc1 (centres undefined) | inactive: -4.96% | – |
| C[C@@H]1C=CCP(=O)(Oc2ccccc2)O1 (some centres undefined) | inactive: 5.41% | – |

| SMILES | activity change, negative = inhibition | Potency |
| --- | --- | --- |
| C[C@H]1OP(=O)(Oc2ccccc2)C[C@@H]2O[C@@H]21 (some centres undefined) | inactive: 2.24% | – |
| Cc1ccccc1CN(C)C(=O)COC(=O)C(O)(c1ccccc1)c1ccccc1 | inactive: -21% | – |
| CC(=O)Nc1ccc([As](=O)(O)O)c(O)c1 | inactive: 18.7% | – |
| O=P1(Nc2nc3ccc(Cl)cc3s2)COc2ccccc2O1 (centres undefined) | inactive: 2.83% | – |
| CCc1cc(O)c([N+](=O)[O-])c(C)c1[N+](=O)[O-] | inactive: -14.8% | – |
| CC(C)(C)C(=O)NC(Sc1ccccc1)C(Cl)(Cl)Cl (centres undefined) | inactive: 5.92% | – |
| Cc1ccc(OP(=O)(Nc2ccccn2)Oc2ccc(C)cc2)cc1 | inactive: 0.514% | – |
| CC(=O)NC(SC(=S)N(CC(C)C)CC(C)C)C(Cl)(Cl)Cl (centres undefined) | inactive: -12.3% | – |
| COC(=O)c1cc2c(s1)N=C(c1ccccc1)N(C)P2(=O)N1CCOCC1 (centres undefined) | inactive: -0.994% | – |
| CCC(=O)N1C2C3N(C(=O)CC)C1C1N(C(=O)CC)C(C(N1C(=O)CC)N3C(=O)CC)N2C(=O)CC | inactive: 8.99% | – |
| O=C(OC1CN2CCC1CC2)c1ccccc1 (centres undefined) | inactive: -25.7% | – |
| CN(C)C(=O)Oc1noc2ccccc12 | inactive: -1.71% | – |
| O=c1c2cc([N+](=O)[O-])ccc2[nH]c2c([N+](=O)[O-])cc([N+](=O)[O-])cc12 | – | active: 3.98 µM |
| Cc1ccccc1OP(=O)(Nc1ccccn1)Oc1ccccc1C | inactive: -6.57% | – |
| CC(NC(=O)COC(=O)C(O)(c1ccccc1)c1ccccc1)c1ccccc1 (centres undefined) | inactive: -23.9% | – |
| CCNC(=S)/N=C(\N)N[N+](=O)[O-] | inactive: 13.4% | – |
| O=C(NC1CCS(=O)(=O)C1)NP(=S)(Oc1ccccc1)Oc1ccccc1 (centres undefined) | inactive: 15.6% | – |
| Cc1ccc(NP(=O)(Oc2cccc(C)c2)Oc2cccc(C)c2)nc1 | inactive: 2.05% | – |
| c1ccc(-c2nn[nH]n2)c(-c2nn[nH]n2)c1 | inactive: -3.78% [at 11.3 µM] | – |
| O=P1(N(CCCl)CCCl)OCCC2CCCCN21 (centres undefined) | inactive: -0.371% | – |
